The test system of data set [1] is KRAS G12V-dependent Ba/F3 cells. Description: Ba/F3 proliferation assay, KRAS G12V. To be noted: read-out: KRAS G12V Ba/F3 IC50, 72 h, AlamarBlue. The method, then:
Ba/F3 cells are ordered from DSMZ (ACC300, Lot17) and grown in RPMI-1640 (ATCC 30-2001)+10% FCS+10 ng/mL IL-3 at 37° C. in 5% CO2 atmosphere. Plasmids containing KRASG12 mutants (i.e. […], G12C, G12V) are obtained from GeneScript. To generate KRASG12-dependent Ba/F3 models, Ba/F3 cells are transduced with retroviruses containing vectors that harbor KRASG12 isoforms. Platinum-E cells (Cell Biolabs) are used for retrovirus packaging. Retrovirus is added to Ba/F3 cells. To ensure infection, 4 μg/mL polybrene is added and cells are spinfected. Infection efficiency is confirmed by measuring GFP-positive cells using a cell analyzer. Cells with an infection efficiency of 10% to 20% are further cultivated and puromycin selection with 1 μg/mL is initiated. As a control, parental Ba/F3 cells are used to show selection status. Selection is considered successful when parental Ba/F3 cells cultures died. […]
For proliferation assays, Ba/F3 cells are seeded into 384-well plates at 1.5×10^3 cells/60 μL in growth media (RPMI-1640+10% FCS). […] AlamarBlue™ (ThermoFisher), a viability stain, is added and fluorescence measured in the PerkinElmer Envision HTS Multilabel Reader. The raw data are imported into and analyzed with the Boehringer Ingelheim proprietary software MegaLab (curve fitting based on the program PRISM, GraphPad Inc.).
On the technique in general: Alamar Blue is a resazurin reagent that responds to reducing activity.

Protein sequences, listed by entry. Tags and fused reporters are not part of them.
UniProt P08684, whole entry: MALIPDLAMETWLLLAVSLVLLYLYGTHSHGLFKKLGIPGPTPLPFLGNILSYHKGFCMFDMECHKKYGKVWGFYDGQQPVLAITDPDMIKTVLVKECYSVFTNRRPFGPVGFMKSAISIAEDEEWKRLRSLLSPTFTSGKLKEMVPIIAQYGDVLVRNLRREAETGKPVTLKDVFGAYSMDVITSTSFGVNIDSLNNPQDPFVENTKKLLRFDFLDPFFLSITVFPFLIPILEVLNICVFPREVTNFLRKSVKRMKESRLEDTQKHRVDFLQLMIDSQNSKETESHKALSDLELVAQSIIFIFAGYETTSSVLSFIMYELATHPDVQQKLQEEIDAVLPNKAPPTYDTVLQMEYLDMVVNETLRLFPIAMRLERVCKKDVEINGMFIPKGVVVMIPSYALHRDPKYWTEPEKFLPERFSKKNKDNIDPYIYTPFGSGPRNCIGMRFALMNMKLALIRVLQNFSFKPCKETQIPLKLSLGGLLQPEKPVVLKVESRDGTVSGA

The next data set relates to NCI-H2122 cells. In words: NCI-H2122 CTG proliferation assay (120 h) (NSCLC, G12C). The note with it: read-out: H2122 IC50. The method, then: NCI-H2122 CTG Proliferation Assay (120 h) (NSCLC, G12C)
The CTG assay is designed to measure quantitatively the proliferation of NCI-H2122 cells (ATCC CRL-5985), using the CellTiter Glow Assay Kit (Promega G7571). Cells are grown in RPMI medium (ATCC) supplemented with Fetal Calf Serum (Life Technologies, Gibco BRL, Cat. No. 10270-106). On “day 0” 200 NCI-H2122 cells are seeded in 60 μL RPMI ATCC+10% FCS+Penstrep in a black 384-well plate, flat and clear bottom (Greiner, PNr. 781091). Cells are then incubated in the plates at 37° C. in a CO2 incubator overnight. On day 1, compounds (10 mM stock in DMSO) are added with the ECHO acoustic liquid handler system (Beckman Coulter), including DMSO controls. Plates are incubated for 120 h, and cell viability is measured using CellTiter-Glo luminescent cell viability reagent (Promega product code G7570). Viability (stated as percent of control) is defined as relative luminescence units RLU of each well divided by the RLU of cells in DMSO controls. IC50 values are determined from viability measurements by non-linear regression using a four parameter model.

The subject of a further data set is SAS cells. In words: SAS CTG proliferation assay (120 h) (HNSCC, wt amplified). The note with it: read-out: SAS IC50. The procedure:
SAS CTG Proliferation Assay (120 h) (HNSCC, Wt Amplified)
SAS cells (JCRB0260) are dispensed into 384-well plates, flat and clear bottom (Greiner, PNr. 781091) at a density of 300 cells per well in 60 μL DMEM:F12 (Gibco 31330-038)+10% Fetal Calf Serum (HyClone, PNr.: SH30084.03) and incubated at 37° C. in a CO2 incubator overnight. The next day, compounds (10 mM stock in DMSO) are added with the ECHO acoustic liquid handler system (Beckman Coulter), including DMSO controls. Plates are incubated for 120 h, and cell viability is measured using CellTiter-Glo luminescent cell viability reagent (Promega product code G7570). Viability (stated as percent of control) is defined as relative luminescence units RLU of each well divided by the RLU of cells in DMSO controls. IC50 values are determined from viability measurements by non-linear regression using a four-parameter model.

The target of another data set is CYP3A4 (Homo sapiens (Human), UniProt P08684). In words: Mechanism based inhibition of CYP3A4 assay (MBI 3A4). To be noted: hydroxy-midazolam formation after 30 min vs 0 min preincubation, 25 uM, human liver microsomes. In general terms: Microsomes from liver hold many membrane-bound enzymes, among them those of drug oxidation.
For the next data set, the system named is Caco-2 cell monolayers. In words: Caco-2 assay (permeability PappAB, PappBA, efflux ratio). To be noted: 10 μM test compound, pH 7.4. The procedure: The assay provides information on the potential of a compound to pass the cell membrane, on the extent of oral absorption as well as on whether the compound is actively transported by uptake and/or efflux transporters. Permeability measurements across polarized, confluent Caco-2 cell monolayers grown on permeable filter supports (Corning, catalog #3391) are used. […] Passive diffusion and/or active transport of compounds across the monolayer is measured in both apical to basolateral (a-b) and basolateral to apical (b-a) direction. a-b permeability (PappAB) represents drug absorption from the intestine into the blood and b-a permeability (PappBA) drug secretion from the blood back into the intestine via both passive permeability as well as active transport mechanisms mediated by efflux and uptake transporters that are expressed on the Caco-2 cells. […] Concentrations of test compounds in samples were measured by HPLC/MS/MS, samples from the donor compartment were diluted 1:50 (v:v) with assay buffer, samples from receiver compartment were measured without dilution.
Apparent permeabilities in a-b (PappAB) and b-a (PappBA) directions are calculated according to the formula: […]
Caco-2 efflux ratios (ER) are calculated as the ratio of PappBA/PappAB.
For orientation: Caco-2 monolayers are a common model of the intestinal barrier.

In the case of `Cc1ccncc1-c1cn(-c2cc(O[C@@H](C)[C@@H]3CCCN3C)nc(-c3noc4c3CCC[C@@]43CCCc4sc(N)c(C#N)c43)n2)nn1`, the IC50 in data set [1] came to 5 nM; in the data set with NCI-H2122 cells, 1160 nM; in the data set with SAS cells, 10 nM. In addition, the “MBI 3A4” value on CYP3A4 stood at 54%. Moreover, in the data set on Caco-2 cell monolayers, the Caco ER amounted to 3.8.
